Results from US20010049357A1, “Use of Hsp27 as an anti-inflammatory agent” (priority 1999, published 2001).

Experiments:
[1] = system: trauma patients' monocytes; assay type: cell-based, human
[2] = system: trauma patients' monocytes

## heat shock protein-27 [Hsp 27]
[1]
  IL-10(pg/10^6 cells/ml) x ± SEM: 670 ± 195 pg/10^6 cells/ml
[2]
  IL-12(pg/10^6 cells/ml) x ± SEM: 598 ± 140 pg/10^6 cells/ml
